A short description of data set [1]: Shake flask solubility of potential salts in aqueous medium (pH<2). To be noted: pH<2, ca. 24 hours shaking, HPLC. It counts as physicochemical. How it is done: The solubility of the potential salts was tested using a shake flask method whereby a slurry of each salt was prepared in deionized water and the pH of the reaction was reduced to below pH 2 by adding a small amount of the counterion used for salt formation. The pH was tested using universal indicator paper.
(open vials). TGA was carried out after the stability studies for samples containing sufficient material.

Data set [2] relates to mutant EGFR kinase. Description: Inhibition of mutant EGFR kinase (enzymatic and cellular assays). Format: biochemical.
Data set [3] in a line: Competitive slurry experiments Form I vs. Form III. It counts as physicochemical. To be noted: Form I vs. Form III in acetone, isopropanol and isopropyl acetate, ambient and 60° C., ca. 3 days. How it is done: Competitive slurry experiments were set up in acetone, isopropanol, acetone:water (80:20) and isopropyl acetate at both room temperature (ca. 22° C.) and 60° C. Approximately 200 mg of each of Forms I and III material was placed into a vial and 4 mL of the appropriate solvent system was added to produce a slurry. For each experiment, the slurries were allowed to stir for ca. 3 days. Analysis by XRPD was then conducted to determine the form of the resultant solid. Competitive slurry experiments of Form I vs. Form III were carried out in 4 solvent systems and resulting solids were analysed by XRPD analysis (FIG. 82 and FIG. 83).

The nature of data set [4]: Thermodynamic solubility in media of various pH (HPLC; XRPD of excess solids). As to conditions: ca. 24 hours. How it is done: The remaining solids were also analysed by XRPD analysis to establish if any changes in the solid form occurred.
The remaining solids were also analysed by XRPD analysis to establish if any changes in the solid form occurred. For the buffer solutions, KCl/HCl was used for pH 1 and citrate/phosphate combinations for pH 3, 4.5 and 6.6.
The remaining solids were also analysed by XRPD analysis to establish if any changes in the solid form occurred. For the buffer solutions, KCl/HCl was used for pH 1 and citric acid/sodium citrate combinations for pH 3, 4.5 and 6.2.
The solids were then removed by filtration and tested by XRPD analysis. The mother liquors were analyzed by HPLC to determine API solubility.
For the buffer solutions, KCl/HCl was used for pH 1 and citrate/phosphate combinations for pH 3, 4.5 and 6.6 (10 mM). The pH of the solutions was also measured prior to HPLC analysis.

Each structure is given as a SMILES string.

Turning to `C=CC(=O)Nc1cccc(Nc2nc(Nc3ccc(N4CCN(C(C)=O)CC4)cc3OC)ncc2C(F)(F)F)c1.O=S(=O)(O)c1cccc2c(S(=O)(=O)O)cccc12`, the “Approximate Solubility” value in data set [1] is “Below LOQ”. `C=CC(=O)Nc1cccc(Nc2nc(Nc3ccc(N4CCN(C(C)=O)CC4)cc3OC)ncc2C(F)(F)F)c1.O=S(=O)(O)c1cccc2c(S(=O)(=O)O)cccc12.O=S(=O)(O)c1cccc2c(S(=O)(=O)O)cccc12`: in data set [1], the “Approximate Solubility” value is given as “Below LOQ”.

`C=CC(=O)Nc1cccc(Nc2nc(Nc3ccc(N4CCN(C(C)=O)CC4)cc3OC)ncc2C(F)(F)F)c1.O=S(=O)(O)c1ccccc1` [Besylate (1 equiv.) Form II]: in data set [1], the “Approximate Solubility” value worked out at 0.055 mg/mL. On the same count and under the same terms, as for `C=CC(=O)Nc1cccc(Nc2nc(Nc3ccc(N4CCN(C(C)=O)CC4)cc3OC)ncc2C(F)(F)F)c1.O=S(=O)(O)c1ccccc1` [Besylate (1 equiv.) Form I], the figure is 0.047 mg/mL; as for `C=CC(=O)Nc1cccc(Nc2nc(Nc3ccc(N4CCN(C(C)=O)CC4)cc3OC)ncc2C(F)(F)F)c1.O=S(=O)(O)c1ccccc1.O=S(=O)(O)c1ccccc1` [Besylate (2 equiv.) Form II], 0.044 mg/mL; as for `C=CC(=O)Nc1cccc(Nc2nc(Nc3ccc(N4CCN(C(C)=O)CC4)cc3OC)ncc2C(F)(F)F)c1.CC1(C)C2CCC1(CS(=O)(=O)O)C(=O)C2` [Camphor-10-sulfonic acid (1 eq.) Form II], 0.58 mg/mL.

For the molecule `C=CC(=O)Nc1cccc(Nc2nc(Nc3ccc(N4CCN(C(C)=O)CC4)cc3OC)ncc2C(F)(F)F)c1.CC1(C)C2CCC1(CS(=O)(=O)O)C(=O)C2` [Camphor-10-sulfonic acid (1 eq.) Form I], the “Approximate Solubility” value in data set [1] came to 1.05 mg/mL. The same measure, in the same setting: as for `C=CC(=O)Nc1cccc(Nc2nc(Nc3ccc(N4CCN(C(C)=O)CC4)cc3OC)ncc2C(F)(F)F)c1.CC1(C)C2CCC1(CS(=O)(=O)O)C(=O)C2.CC1(C)C2CCC1(CS(=O)(=O)O)C(=O)C2` [Camphor-10-sulfonic acid (2 eq.) Form I], the figure is 0.89 mg/mL.

In the case of `C=CC(=O)Nc1cccc(Nc2nc(Nc3ccc(N4CCN(C(C)=O)CC4)cc3OC)ncc2C(F)(F)F)c1` [Compound 2], the “selectivity for mutant EGFR as compared to wild-type (WT) EGFR” value in data set [2] is recorded as “selective inhibitor”. Regarding `Br.C=CC(=O)Nc1cccc(Nc2nc(Nc3ccc(N4CCN(C(C)=O)CC4)cc3OC)ncc2C(F)(F)F)c1` [Form I hydrobromide salt], the “Approximate Solubility” value in data set [1] was determined as 1.27 mg/mL. For the same molecule, the “relative thermodynamic stability of forms” value in data set [3] is “thermodynamically most stable form”. For `Br.C=CC(=O)Nc1cccc(Nc2nc(Nc3ccc(N4CCN(C(C)=O)CC4)cc3OC)ncc2C(F)(F)F)c1` [Form III hydrobromide salt], the “Thermodynamic Solubility” value is 0.84 mg/mL in data set [4] (pH 3.0, Citrate/Phosphate) and 0.42 mg/mL in data set [4] (pH 6.6, Citrate/Phosphate).

As for `Br.Br.C=CC(=O)Nc1cccc(Nc2nc(Nc3ccc(N4CCN(C(C)=O)CC4)cc3OC)ncc2C(F)(F)F)c1` [HBr (2 eq.) Form II], in data set [1], the “Approximate Solubility” value came out at 2.38 mg/mL. The same measure, in the same setting: under `C=CC(=O)Nc1cccc(Nc2nc(Nc3ccc(N4CCN(C(C)=O)CC4)cc3OC)ncc2C(F)(F)F)c1.Cl` [Hydrochloride (1 equiv.) Form I] stands 0.400 mg/mL; under `C=CC(=O)Nc1cccc(Nc2nc(Nc3ccc(N4CCN(C(C)=O)CC4)cc3OC)ncc2C(F)(F)F)c1.Cl.Cl` [Hydrochloride (2 equiv.) Form I], 0.196 mg/mL.

For `C=CC(=O)Nc1cccc(Nc2nc(Nc3ccc(N4CCN(C(C)=O)CC4)cc3OC)ncc2C(F)(F)F)c1.O=C(O)/C=C\C(=O)O` [Maleate Form III], the “Approximate Solubility” value in data set [1] was found to be 0.251 mg/mL. Take `C=CC(=O)Nc1cccc(Nc2nc(Nc3ccc(N4CCN(C(C)=O)CC4)cc3OC)ncc2C(F)(F)F)c1.O=C(O)/C=C\C(=O)O` [Maleate Form II]: the “Approximate Solubility” value in data set [1] was found to be 0.271 mg/mL. As to `C=CC(=O)Nc1cccc(Nc2nc(Nc3ccc(N4CCN(C(C)=O)CC4)cc3OC)ncc2C(F)(F)F)c1.O=C(O)/C=C\C(=O)O` [Maleate Form I], in data set [1], the “Approximate Solubility” value amounted to 0.168 mg/mL. Consider `C=CC(=O)Nc1cccc(Nc2nc(Nc3ccc(N4CCN(C(C)=O)CC4)cc3OC)ncc2C(F)(F)F)c1.CS(=O)(=O)O.CS(=O)(=O)O` [Mesylate Form I], for which, in data set [1], the “Approximate Solubility” value came to 7.286 mg/mL. `C=CC(=O)Nc1cccc(Nc2nc(Nc3ccc(N4CCN(C(C)=O)CC4)cc3OC)ncc2C(F)(F)F)c1.O=S(=O)(O)c1ccc2ccccc2c1.O=S(=O)(O)c1ccc2ccccc2c1` [Naphthalene-2-sulfonic acid (2 eq.) Form III]: in data set [1], the “Approximate Solubility” value came out at 0.74 mg/mL.

Consider `C=CC(=O)Nc1cccc(Nc2nc(Nc3ccc(N4CCN(C(C)=O)CC4)cc3OC)ncc2C(F)(F)F)c1.O=S(=O)(O)c1ccc2ccccc2c1.O=S(=O)(O)c1ccc2ccccc2c1` [Naphthalene-2-sulfonic acid (2 eq.) Form II], for which the “Approximate Solubility” value in data set [1] is 0.86 mg/mL. The same measure, in the same setting: as for `C=CC(=O)Nc1cccc(Nc2nc(Nc3ccc(N4CCN(C(C)=O)CC4)cc3OC)ncc2C(F)(F)F)c1.O=S(=O)(O)c1ccc2ccccc2c1.O=S(=O)(O)c1ccc2ccccc2c1` [Naphthalene-2-sulfonic acid (2 eq.) Form IV], the figure is 0.76 mg/mL; as for `C=CC(=O)Nc1cccc(Nc2nc(Nc3ccc(N4CCN(C(C)=O)CC4)cc3OC)ncc2C(F)(F)F)c1.O=S(=O)(O)c1ccc2ccccc2c1.O=S(=O)(O)c1ccc2ccccc2c1` [Naphthalene-2-sulfonic acid (2 eq.) Form I], 0.87 mg/mL. Same read-out and setting: under `C=CC(=O)Nc1cccc(Nc2nc(Nc3ccc(N4CCN(C(C)=O)CC4)cc3OC)ncc2C(F)(F)F)c1.O=C(O)C(=O)O` [Oxalate Form II] stands 0.22 mg/mL; under `C=CC(=O)Nc1cccc(Nc2nc(Nc3ccc(N4CCN(C(C)=O)CC4)cc3OC)ncc2C(F)(F)F)c1.O=C(O)C(=O)O` [Oxalate Form I], 0.158 mg/mL; under `C=CC(=O)Nc1cccc(Nc2nc(Nc3ccc(N4CCN(C(C)=O)CC4)cc3OC)ncc2C(F)(F)F)c1.Cc1ccc(S(=O)(=O)O)cc1` [Tosylate (1 equiv.) Form II], 0.422 mg/mL. As to `C=CC(=O)Nc1cccc(Nc2nc(Nc3ccc(N4CCN(C(C)=O)CC4)cc3OC)ncc2C(F)(F)F)c1.Cc1ccc(S(=O)(=O)O)cc1` [Tosylate (1 equiv.) Form I], the “Approximate Solubility” value in data set [1] came out at 0.104 mg/mL. Still for that read-out and setting: as for `C=CC(=O)Nc1cccc(Nc2nc(Nc3ccc(N4CCN(C(C)=O)CC4)cc3OC)ncc2C(F)(F)F)c1.Cc1ccc(S(=O)(=O)O)cc1.Cc1ccc(S(=O)(=O)O)cc1` [Tosylate (2 equiv.) Form II], the figure is 0.303 mg/mL; as for `C=CC(=O)Nc1cccc(Nc2nc(Nc3ccc(N4CCN(C(C)=O)CC4)cc3OC)ncc2C(F)(F)F)c1.Cc1ccc(S(=O)(=O)O)cc1.Cc1ccc(S(=O)(=O)O)cc1` [Tosylate (2 equiv.) Form I], 0.089 mg/mL. As for `C=CC(=O)Nc1cccc(Nc2nc(Nc3ccc(N4CCN(C(C)=O)CC4)cc3OC)ncc2C(F)(F)F)c1.O=S(=O)(O)c1ccccc1.O=S(=O)(O)c1ccccc1` [bis-besylate salt], the “Approximate Solubility” value in data set [1] (listed as Besylate (2 equiv.) Form I) was 4.264 mg/mL.

These data come from US10570099B2, “Salts of an epidermal growth factor receptor kinase inhibitor” (Celgene CAR LLC, priority 2012, dated 2020).
